Test: Maximum achieved massage induced skin load (400 g vibrator, 10 minutes)
Conditions: particle size 0.4 um 20%, 0.3 um 40%, 0.2 um 20%, <0.1 um 20%

zinc gluconate
Maximum loading (carrier Eutanol G): 2.3 micrograms/cm^2
Maximum loading (carrier Nil (dry powder)): 1.4 mg/cm^2

Reference: US20020022052A1, “Transdermal delivery system” (priority 2000, published 2002)
